Patent EP4837910A1, “ISOXAZOLINE COMPOUND AND PREPARATION METHOD THEREFOR, HERBICIDAL COMPOSITION, AND USE” (dated 2026)

Legend:
Details in all cases: after 4 weeks in greenhouse, fresh weight control rate
Zea mays = test: Pre-emergence test, crop damage (greenhouse, sprayed immediately after sowing)
Triticum aestivum = test: as above
[1] = test system: Monocotyledonous and dicotyledonous weed; test: Pre-emergence test on weeds (greenhouse, sprayed immediately after sowing)

Row | Compound | activity level of plant damage (growth control rate), Zea mays (Zea mays; Dosage 240 g a.i./ha) | activity level of plant damage (growth control rate), Triticum aestivum (Triticum aestivum; Dosage 240 g a.i./ha) | activity level of plant damage (growth control rate), Descurainia sophia ([1]; Dosage 240 g a.i./ha) | activity level of plant damage (growth control rate), Digitaria sanguinalis ([1]; Dosage 240 g a.i./ha) | activity level of plant damage (growth control rate), Lolium multiflorum ([1]; Dosage 240 g a.i./ha) | activity level of plant damage (growth control rate), Setaria viridis ([1]; Dosage 240 g a.i./ha) | activity level of plant damage (growth control rate), Zea mays (Zea mays; Dosage 250 g a.i./ha) | activity level of plant damage (growth control rate), Triticum aestivum (Triticum aestivum; Dosage 250 g a.i./ha) | activity level of plant damage (growth control rate), Descurainia sophia ([1]; Dosage 250 g a.i./ha)
1 | C=C[C@@]1(C(=O)N[C@@H](C)C(=O)N(C)OC)CC(c2ccc(F)c(F)c2)=NO1 | 0 | 1 (Level 1: growth control rate less than 10%) | 5 (Level 5: growth control rate greater than or equal to 50% and less than 70%) |  |  |  |  |  | 
2 | C=C[C@]1(C(=O)N[C@@H](Cc2c[nH]cn2)C(=O)N(C)OC)CC(c2cc(F)cc(F)c2)=NO1 | 0 | 0 | 6 (Level 6: growth control rate greater than or equal to 70% and less than 80%) |  |  |  |  |  | 
3 | CON(C)C(=O)[C@@H](C)NC(=O)C1(C)CC(c2cc(Cl)nc(Cl)c2)=NO1 (stereo partly shown) | 1 (Level 1: growth control rate less than 10%) | 0 | 5 (Level 5: growth control rate greater than or equal to 50% and less than 70%) |  |  |  |  |  | 
4 | C=C(C)[C@@]1(C(=O)N[C@@H](C)C(=O)N(C)OC)CC(c2cc(C)cc(Cl)c2)=NO1 | 2 (Level 2: growth control rate greater than or equal to 10% and less than 20%) | 1 (Level 1: growth control rate less than 10%) | 8 (Level 8: growth control rate greater than or equal to 90% and less than 100%) | 9 | 7 (Level 7: growth control rate greater than or equal to 80% and less than 90%) | 8 (Level 8: growth control rate greater than or equal to 90% and less than 100%) |  |  | 
5 | C=C(C)[C@]1(C(=O)N[C@@H](C)C(=O)N(C)OC)CC(c2cc(C)cc(F)c2)=NO1 | 0 | 0 | 9 | 9 | 9 | 9 |  |  | 
6 | CC[C@]1(C(=O)N[C@@H](C)C(=O)N(C)OC)CC(c2cc(C)cc(F)c2)=NO1 | 0 | 1 (Level 1: growth control rate less than 10%) | 5 (Level 5: growth control rate greater than or equal to 50% and less than 70%) | 9 | 9 | 9 |  |  | 
7 | CC[C@@]1(C(=O)N[C@@H](C)C(=O)N(C)OC)CC(c2cc(Br)cc(Br)c2)=NO1 | 0 | 0 | 9 |  |  |  |  |  | 
8 | C=C[C@@]1(C(=O)N[C@@H](C)C(=O)N(C)OC)CC(c2cc(Br)cc(Br)c2)=NO1 | 1 (Level 1: growth control rate less than 10%) | 0 | 5 (Level 5: growth control rate greater than or equal to 50% and less than 70%) |  |  |  |  |  | 
9 | CON(C)C(=O)[C@@H](C)NC(=O)C1(C)CC(c2cc(F)cc(F)c2)=NO1 (stereo partly shown) |  |  |  |  |  |  | 0 | 0 | 5 (Level 5: growth control rate greater than or equal to 50% and less than 70%)
10 | CC[C@@]1(C(=O)N[C@@H](C)C(=O)N(C)OC)CC(c2cc(F)cc(OC)c2)=NO1 | 0 | 0 |  | 7 (Level 7: growth control rate greater than or equal to 80% and less than 90%) |  | 5 (Level 5: growth control rate greater than or equal to 50% and less than 70%) |  |  | 
11 | C=C[C@]1(C(=O)N[C@@H](COC)C(=O)N(C)OC)CC(c2cc(F)cc(F)c2)=NO1 | 2 (Level 2: growth control rate greater than or equal to 10% and less than 20%) | 0 |  | 5 (Level 5: growth control rate greater than or equal to 50% and less than 70%) |  |  |  |  | 
12 | CC[C@]1(C(=O)N[C@@H](C)C(=O)N(C)OC)CC(c2cc(Cl)cc(OC(F)(F)F)c2)=NO1 | 0 | 1 (Level 1: growth control rate less than 10%) |  | 8 (Level 8: growth control rate greater than or equal to 90% and less than 100%) | 8 (Level 8: growth control rate greater than or equal to 90% and less than 100%) | 9 |  |  | 
13 | C=C[C@@]1(C(=O)N[C@H](C)C(=O)NOC)CC(c2cc(Cl)cc(C(F)(F)F)c2)=NO1 | 0 | 0 |  |  |  | 9 |  |  | 
14 | C=C[C@]1(C(=O)N[C@@H](C)C(=O)N(C)OC)CC(c2cc(F)cc(OC)c2)=NO1 | 2 (Level 2: growth control rate greater than or equal to 10% and less than 20%) | 2 (Level 2: growth control rate greater than or equal to 10% and less than 20%) | 7 (Level 7: growth control rate greater than or equal to 80% and less than 90%) | 8 (Level 8: growth control rate greater than or equal to 90% and less than 100%) |  | 8 (Level 8: growth control rate greater than or equal to 90% and less than 100%) |  |  | 
15 | CC[C@@]1(C(=O)N[C@@H](C)C(=O)NOC)CC(c2cc(F)cc(OC(F)(F)F)c2)=NO1 | 1 (Level 1: growth control rate less than 10%) | 2 (Level 2: growth control rate greater than or equal to 10% and less than 20%) | 9 |  |  |  |  |  | 
16 | C=C[C@]1(C(=O)N[C@@H](C(=O)N(C)OC)C2CC2)CC(c2cc(F)cc(F)c2)=NO1 | 1 (Level 1: growth control rate less than 10%) | 0 | 5 (Level 5: growth control rate greater than or equal to 50% and less than 70%) |  |  |  |  |  | 
17 | CC[C@]1(C(=O)N[C@@H](C)C(=O)NOC)CC(c2cc(F)cc(OC)c2)=NO1 | 0 | 1 (Level 1: growth control rate less than 10%) | 9 | 7 (Level 7: growth control rate greater than or equal to 80% and less than 90%) |  |  |  |  | 
18 | C=C[C@]1(C(=O)N[C@@H](C)C(=O)NOC)CC(c2cc(F)cc(OC)c2)=NO1 | 0 | 1 (Level 1: growth control rate less than 10%) | 5 (Level 5: growth control rate greater than or equal to 50% and less than 70%) |  |  |  |  |  | 
19 | C=C[C@@]1(C(=O)N[C@H](C)C(=O)N(C)OC)CC(c2cc(Cl)cc(Cl)c2)=NO1 | 0 | 2 (Level 2: growth control rate greater than or equal to 10% and less than 20%) | 6 (Level 6: growth control rate greater than or equal to 70% and less than 80%) |  |  |  |  |  | 
20 | C=CC1(C(=O)N[C@@H](C)C(=O)N(C)OCC2CCCO2)CC(c2cc(C)cc(Cl)c2)=NO1 (stereo partly shown) | 0 | 0 |  |  |  | 5 (Level 5: growth control rate greater than or equal to 50% and less than 70%) |  |  | 
21 | C=CC1(C(=O)N[C@@H](C)C(=O)N(C)OC)CC(c2cc(C)cc(C)c2)=NO1 (stereo partly shown) | 0 | 0 |  | 9 |  | 9 |  |  | 
22 | C=C[C@@]1(C(=O)N[C@H](C)C(=O)NOC)CC(c2cc(F)cc(Cl)c2)=NO1 | 0 | 0 | 9 |  |  |  |  |  | 
